Measurements taken from PMC7493195 (Journal of medicinal chemistry, 2020).

Amino acid sequences for entries named in this document (tags omitted).
UniProt P07947, whole entry: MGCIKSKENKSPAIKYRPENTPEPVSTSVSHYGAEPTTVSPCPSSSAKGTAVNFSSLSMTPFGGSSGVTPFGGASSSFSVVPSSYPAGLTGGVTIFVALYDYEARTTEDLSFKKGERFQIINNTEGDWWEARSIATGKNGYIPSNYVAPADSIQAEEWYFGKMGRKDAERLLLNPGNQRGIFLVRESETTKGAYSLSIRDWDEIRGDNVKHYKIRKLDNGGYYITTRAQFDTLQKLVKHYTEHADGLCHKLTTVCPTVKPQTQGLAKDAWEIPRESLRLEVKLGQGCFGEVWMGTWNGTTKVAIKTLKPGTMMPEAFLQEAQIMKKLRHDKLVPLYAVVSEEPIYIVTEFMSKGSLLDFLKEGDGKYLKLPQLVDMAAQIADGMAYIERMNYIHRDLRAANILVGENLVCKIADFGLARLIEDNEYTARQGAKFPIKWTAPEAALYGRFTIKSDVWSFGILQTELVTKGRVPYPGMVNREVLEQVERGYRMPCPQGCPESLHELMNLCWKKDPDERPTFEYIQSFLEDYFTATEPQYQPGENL

Legend:
[1] = system: panel of 468 human kinases; format: binding
[2] = biological target: YES1 (Homo sapiens, UniProt P07947); conditions: H1975 and HCC827 cells, 1 μM, 2 h
[3] = biological target: SRC (Mus musculus, UniProt P05480); conditions: 3 doses of 5 mg/kg IP, 2 and 4 h after last dose
[4] = system: MDA-MB-231, H1975 and HCC827 cells; conditions: 72 h, three cell lines

## C=CC(=O)Nc1ccccc1Nc1nc(Nc2ccc(N3CCN(C)CC3)cc2)ncc1C(=O)Nc1c(C)cccc1Cl [Compound 15a, 4-((2-Acrylamidophenyl)amino)-N-(2-chloro-6-methylphenyl)-2-((4-(4-methylpiperazin-1-yl)phenyl)amino)pyrimidine-5-carboxamide]
[1]
  inhibition of MEK family kinases: not inhibited
  number of kinases inhibited: around 20 kinases
[2]
  cellular engagement of YES1: potential covalent target
[3]
  SRC binding and inhibition in spleen: SRC binding and inhibition at both 2 and 4 h postdosing

## CCC(=O)Nc1ccccc1Nc1nc(Nc2ccc(N3CCN(C)CC3)cc2)ncc1C(=O)Nc1c(C)cccc1Cl [Compound 20f, N-(2-Chloro-6-methylphenyl)-2-((4-(4-methylpiperazin-1-yl)-phenyl)amino)-4-((2-propionamidophenyl)amino)pyrimidine-5-carboxamide]
[4]
  growth inhibitory potency, in words: weaker potency compared to 15a
